IC50 data for one compound are collected here from patent US9504729B2, “Antiangiogenic small molecules and methods of use” (The United States of America, as represented by the …, priority 2009, dated 2016).

The assay deals with PAE cells. Kind of assay: Growth dose response (IC50) in PAE. Format: cell-based, porcine. As to conditions: Sus scrofa, read-out: Growth IC50 (M) in PAE.

The structures appear in SMILES notation.

With `COc1ccc2c(c1)c1c(C)c3cnccc3c(C)c1n2CCCN` [Compound 26, 3-(9-methoxy-5,11-dimethylpyrido[4,3-b]carbazol-2-ium-6-yl)propan-1-amine chloride], the IC50 came to 8.38e-11 M.

As usually defined, the IC50 is the point on the concentration scale where inhibition reaches its midpoint.
